# This is a selection; strong and weak results do not stand in their true shares. Inconclusive results are not listed. Activity calls are given as the source filed them. Calls follow the shape of the dose curve; as a rule, active = well fitted inhibition curve with a large enough effect; inconclusive = small, poorly fitted or top-dose-only effect, or effect the other way; inactive = flat fitted curve, though single readings scatter.
# Assay: qHTS screen for small molecules that inhibit ELG1-dependent DNA repair in human embryonic kidney (HEK293T) cells expressing luciferase-tagged ELG1; also: nearly all actives have a fitted effect of over 55% in size
# Conditions: HEK293T ELG1-luciferase reporter, luminescence, 16 h; DNA damage induced by 5-fluorouridine
# From the text: NIH Molecular Libraries Probe Production Network [MLPCN] NIH Chemical Genomics Center [NCGC] MLPCN Grant: 1 R03 MH092164-01 Assay Provider: Kyungjae Myung, NHGRI, NIH Keywords: MLPCN, qHTS, NCGC, genotoxicity, cancer Assay Overview: Cancer cells divide rapidly compared to normal cells in the body. During cell division, cancer cells need to duplicate their genome by DNA replication. The failure of genome duplication leads to cancer cells' death. Therefore, inhibitors of DNA replication could specifically kill cancer cells. Based on this concept, many chemotherapeutic agents were developed and have been used to treat cancer patients. However, there are a limited number of agents available in the clinical setting, and some of those that do exist have low efficacy and severe side effects. […] With this in mind, we developed a quantitative high-throughput ELG1-luciferase reporter gene assay. […]
# Assay Protocol Summary: For genotoxicity screening, 2,000 cells in 4 uL/well were dispensed into white, solid-bottom 1536-well plates using a solenoid-based dispenser. […] 5 ul ONE-Glo (Promega) was then added to each plate and following a 30 min incubation at room temperature, luciferase activity was quantified on a ViewLux CCD-based plate reader.
# Potency is read from the fitted curve at half-maximal effect.
row,Structure (SMILES),Potency
1,Nc1ncn([C@@H]2O[C@H](CO)[C@@H](O)[C@H]2O)c(=O)n1,active: 2820 nM

# Reference: PubChem BioAssay AID504467 (National Center for Advancing Translational Sciences (NCATS), 2011)
